Assay results taken from patent US20200129597A1, “MODULATION OF FACTOR Xa INHIBITOR-MEDIATED BLOOD LOSS BY PARTIAL AND TRANSIENT ADMINISTRATION OF ANTIDOTE” (Portola Pharmaceuticals, Inc., priority 2012, published 2020).

Chains of the proteins cited; added tags and fusions are not shown. Residues count along the entry.
UniProt P00742, 41-179 limits assumed: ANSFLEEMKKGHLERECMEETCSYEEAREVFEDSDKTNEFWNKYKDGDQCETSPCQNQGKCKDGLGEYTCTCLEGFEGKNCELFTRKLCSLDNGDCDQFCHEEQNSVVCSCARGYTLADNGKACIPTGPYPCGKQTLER
UniProt P00742, 235-488 limits assumed: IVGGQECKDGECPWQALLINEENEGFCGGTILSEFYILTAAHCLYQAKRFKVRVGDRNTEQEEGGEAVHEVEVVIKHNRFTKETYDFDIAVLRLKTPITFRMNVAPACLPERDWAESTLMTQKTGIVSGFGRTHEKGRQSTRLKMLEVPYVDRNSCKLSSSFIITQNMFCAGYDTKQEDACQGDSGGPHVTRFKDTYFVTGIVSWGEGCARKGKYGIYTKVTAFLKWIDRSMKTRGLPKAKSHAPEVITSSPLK

Tests used:
[1] = Anti-fXa activity in rivaroxaban anticoagulated rabbits; type: in vivo; conditions: r-Antidote 75 mg/rabbit, rivaroxaban 1 mg/kg
Protocol: (§1) Anesthetized rabbits were administered vehicle or 1 mg/kg rivaroxaban via IV bolus injection. […] Blood loss due to rivaroxaban anticoagulation represented approximately 10% of the animal's total blood volume. Total rivaroxaban concentration in plasma was measured by LC-MS/MS. Free fraction of rivaroxaban (non-protein, non-r-Antidote bound) was first separated using ultra-filtration followed by LC-MS/MS quantitation. Anti-fXa activity was measured using a modified chromogenic LMW heparin kit. PT and aPTT was measured using commercial reagents (HemosIL).
(§2) Rivaroxaban (1 mg/kg) or vehicle was dosed to anesthetized rabbits by IV bolus over 2 minutes via marginal ear vein catheter. […] Serial blood samples were collected at 0, 30, 35, and 50 minutes post rivaroxaban. Measurements included reduction in blood loss, decrease in unbound rivaroxaban in the plasma using equilibrium dialysis method, anti-fXa activity, PT and aPTT. The method for measuring PT is described previously in Example 6.

[2] = Phase 2 trial: anti-fXa activity (chromogenic assay) after apixaban and r-Antidote; type: in vivo, human
Source text: Pharmacodynamic and safety data are collected through Day 48 and PK through Day 10. A chromogenic assay was used to determine anti-fXa activity.

blood loss [3] = assay: Rabbit liver laceration blood loss model; type: in vivo; conditions: for effect on blood loss when given alone: in the absence of rivaroxaban
Protocol: Rivaroxaban (1 mg/kg) or vehicle was dosed by IV bolus over 2 minutes via marginal ear vein catheter. […] Riva=Rivaroxaban; g=gram
as §1
Anesthetized rabbits were administered vehicle or 1 mg/kg rivaroxaban via IV bolus injection. […] Blood loss due to rivaroxaban anticoagulation represented approximately 10% of the animal's total blood volume (FIG. 13). As in the rodent model, total and free rivaroxaban concentration in plasma, anti-fXa activity and PT and activated partial thromboplastin times (aPTT) was measured.
as §2

prothrombinase complex = target: T1, prothrombinase complex (Homo sapiens, UniProt P00742); assay: Tissue factor-initiated thrombin generation assay in human plasma; type: biochemical
T1 construct: from tissue; host or cells: pooled human plasma
Protocol: The lines represent the best fittings; Kd and Ki values are listed. mOD min^−1=miliOptical Density per minute. […] Grey bar: Control plasma alone (PPP), Filled bar: rivaroxaban or rivaroxaban+r-antidote, Open bar: Control plasma+r-antidote. […] Thrombin generation was initiated by addition of Ca^2+ and tissue factor (TF). Cleavage of thrombin specific substrate Z-GGR-AMC (RFU=Relative Fluorescence Units) was measured at 37° C. for 10 min.
(§3) Anesthetized rats were administered enoxaparin (4.5 mg/kg) or vehicle by I.V. bolus injection followed by tail transection (2 mm from tip) 5 minutes later. […] The tip of the tail was placed in physiologic saline at 37° C. and blood collected for an additional 45 minutes after tail transection. Blood was lysed by diluting in water and freezing at −80° C. overnight. […] Anti-fXa activity of enoxaparin was measured using a modified chromogenic LMW heparin kit. Tissue factor (TF)-initiated thrombin generation was carried out in human plasma using a fluorogenic thrombin substrate by measurement of change of relative fluorescence unit (RFU) for 10 min following initiation of the reaction.
Innovin was used as the source of TF to initiate the generation of thrombin. The reaction mixture (final volume=100 μL) contained 15 mM Ca^2, 100 μM Z-GGR-AMC, and 0.1 nM TF. […] Tris-buffered saline (20 mM Tris, 150 mM NaCl, pH=7.4) was used to adjust the final volume of the reaction mixture.

[4] = Plasma levels of r-Antidote in rats (ELISA); type: in vivo, rat; conditions: for Peak Plasma Concentration: rat
Protocol: Then, tail transection was initiated another 5 min later, and cumulative blood loss was measure for up to 45 minutes.
as §3

blood loss [5] = assay: Rat tail transection treatment model, r-Antidote given after bleeding initiated; type: in vivo; conditions: for Reduction of blood loss: vs. Enox+vehicle
Protocol: In a pilot study using this antidote treatment model, anesthetized rats were intravenously (IV) administered either vehicle or enoxaparin (4.5 mg/kg, IV bolus) followed by tail transection at 5 min post-dosing.
as §3

prothrombin time (PT) = assay: Prothrombin time in rabbit liver laceration model; type: in vivo
Protocol: as §1
For human in vitro and rat ex vivo experiments, PT was measured using MLA Electra 800 automatic coagulation timer. Innovin was automatically dispensed to plasma samples (100 μL) per manufacturer's instructions. […] For rabbit experiments, PT and aPTT were measured using a Beckman Coulter ACL Elite instrument with HemosIL reagents (available commercially from Instrumentation Laboratories). Whole blood INR (International Normalized Ratio) for animal samples were measured by Hemchron Jr. Signature Cartridges (International Technidyne Corporation) according to manufacturer's instructions.
Rivaroxaban (1 mg/kg) or vehicle was dosed to anesthetized rabbits by IV bolus over 2 minutes via marginal ear vein catheter. […] Serial blood samples were collected at 0, 30, 35, and 50 minutes post rivaroxaban. […]

B1: r-Antidote: processed two-chain polypeptide of SEQ ID NO: 3; modified, catalytically inactive human recombinant fXa lacking the Gla domain (protein)
chain: ANSFLFWNKYKDGDQCETSPCQNQGKCKDGLGEYTCTCLEGFEGKNCELFTRKLCSLDNGDCDQFCHEEQNSVVCSCARGYTLADNGKACIPTGPYPCGKQTLERIVGGQECKDGECPWQALLINEENEGFCGGTILSEFYILTAAHCLYQAKRFKVRVGDRNTEQEEGGEAVHEVEVVIKHNRFTKETYDFDIAVLRLKTPITFRMNVAPACLPERDWAESTLMTQKTGIVSGFGRTHEKGRQSTRLKMLEVPYVDRNSCKLSSSFIITQNMFCAGYDTKQEDACQGDAGGPHVTRFKDTYFVTGIVSWGEGCARKGKYGIYTKVTAFLKWIDRSMKTRGLPKAKSHAPEVITSSPLK
modifications: processed two-chain form
**Q.** For B1, which “decrease of peak anti-fXa activity” value [1] is on record?
**A.** The value was 98%.

**Q.** And the “change of mean anti-fXa activity” value ([2]; 10 minutes post r-Antidote 90 mg)?
**A.** Its value is −47%.

**Q.** What about the “change of mean anti-fXa activity” value ([2]; 30 minutes post r-Antidote 90 mg) of the same molecule?
**A.** Its value is −29%.

**Q.** What about the “change of mean anti-fXa activity” value ([2]; 60 minutes post r-Antidote 90 mg) of the same molecule?
**A.** Its value is −17%.

**Q.** And the “change of mean anti-fXa activity” value ([2]; two minutes after r-Antidote 90 mg bolus, apixaban 5 mg bid, n=4)?
**A.** Its value is −65%.

**Q.** And the “effect on blood loss when given alone” value (blood loss [3])?
**A.** Its value is “had no effect on blood loss”.

**Q.** What about the “effect on blood loss when given alone” value (blood loss [3]; listed as PRT) of the same molecule?
**A.** The value was “did not affect blood loss”.

**Q.** What about the “Reduction of blood loss” value (blood loss [3]; r-Antidote 75 mg/rabbit in rivaroxaban (1 mg/kg) treated rabbits, Riva+PRT vs. Riva alone) of the same molecule?
**A.** Its value is > 85% and 76%.

**Q.** What about the “effect on enoxaparin mediated inhibition of thrombin generation” value (prothrombinase complex; human plasma, in vitro) of the same molecule?
**A.** Its value is “reversed the enoxaparin mediated inhibition of thrombin generation”.

**Q.** And the “formation of thrombin (RFU)” value (prothrombinase complex; r-Antidote up to 3.3 μM)?
**A.** Its value is “remained essentially unchanged”.

**Q.** And the “Peak Plasma Concentration” value ([4]; r-Antidote 0.5 mg bolus)?
**A.** The value was 0.45 µM.

**Q.** And the “Peak Plasma Concentration” value ([4]; r-Antidote 1 mg bolus)?
**A.** Its value is 1.1 µM.

**Q.** And the “Peak Plasma Concentration” value ([4]; r-Antidote 2 mg bolus)?
**A.** The value was 1.8 µM.

**Q.** What about the “Peak Plasma Concentration” value ([4]; r-Antidote 4 mg bolus) of the same molecule?
**A.** Its value is 4.3 µM.

**Q.** And the “half life of r-Antidote” value ([4]; rats)?
**A.** The value was “about 15 minutes”.

**Q.** What about the r-Antidote plasma ([4]; time point 20, r-Antidote 0.5 mg) of the same molecule?
**A.** Its r-Antidote plasma is 0.5 µM.

**Q.** And the r-Antidote plasma ([4]; time point 20, r-Antidote 1 mg)?
**A.** The r-Antidote plasma was 1.1 µM.

**Q.** And the r-Antidote plasma ([4]; time point 20, r-Antidote 2 mg)?
**A.** Its r-Antidote plasma is 1.8 µM.

**Q.** What about the r-Antidote plasma ([4]; time point 20, r-Antidote 4 mg) of the same molecule?
**A.** Its r-Antidote plasma is 4.3 µM.

**Q.** What about the r-Antidote plasma ([4]; time point 30, r-Antidote 0.5 mg) of the same molecule?
**A.** The r-Antidote plasma was 0.3 µM.

**Q.** What about the r-Antidote plasma ([4]; time point 30, r-Antidote 1 mg) of the same molecule?
**A.** Its r-Antidote plasma is 0.6 µM.

**Q.** And the r-Antidote plasma ([4]; time point 30, r-Antidote 2 mg)?
**A.** Its r-Antidote plasma is 1.2 µM.

**Q.** What about the r-Antidote plasma ([4]; time point 30, r-Antidote 4 mg) of the same molecule?
**A.** Its r-Antidote plasma is 2.4 µM.

**Q.** And the r-Antidote plasma ([4]; time point 45, r-Antidote 0.5 mg)?
**A.** The r-Antidote plasma was 0.2 µM.

**Q.** And the r-Antidote plasma ([4]; time point 45, r-Antidote 1 mg)?
**A.** Its r-Antidote plasma is 0.4 µM.

**Q.** What about the r-Antidote plasma ([4]; time point 45, r-Antidote 2 mg) of the same molecule?
**A.** The r-Antidote plasma was 0.6 µM.

**Q.** What about the r-Antidote plasma ([4]; time point 45, r-Antidote 4 mg) of the same molecule?
**A.** Its r-Antidote plasma is 1.3 µM.

**Q.** What about the r-Antidote plasma ([4]; time point 60, r-Antidote 0.5 mg) of the same molecule?
**A.** Its r-Antidote plasma is 0.1 µM.

**Q.** And the r-Antidote plasma ([4]; time point 60, r-Antidote 1 mg)?
**A.** The r-Antidote plasma was 0.2 µM.

**Q.** What about the r-Antidote plasma ([4]; time point 60, r-Antidote 2 mg) of the same molecule?
**A.** Its r-Antidote plasma is 0.3 µM.

**Q.** What about the r-Antidote plasma ([4]; time point 60, r-Antidote 4 mg) of the same molecule?
**A.** The r-Antidote plasma was 0.7 µM.

**Q.** What about the “cumulative blood loss relative to enoxaparin only group” value (blood loss [5]; pilot study, enoxaparin 4.5 mg/kg, r-Antidote 4 mg/rat after 5 min of blood loss, end of experiment) of the same molecule?
**A.** The value was “less than 20%”.

**Q.** And the “time after bolus injection until bleeding significantly reduced or stopped for all rats” value (blood loss [5]; pilot study, r-Antidote 4 mg/rat after 5 min of blood loss)?
**A.** The value was at most 5 min.

**Q.** And the “Reduction of blood loss” value (blood loss [5]; r-Antidote 1 mg bolus 10 min after tail transection, enoxaparin 4.5 mg/kg)?
**A.** The value was 60%.

**Q.** And the “Reduction of blood loss” value (blood loss [5]; r-Antidote 2 mg bolus 10 min after tail transection, enoxaparin 4.5 mg/kg)?
**A.** Its value is 56%.

**Q.** And the “Reduction of blood loss” value (blood loss [5]; r-Antidote 4 mg bolus 10 min after tail transection, enoxaparin 4.5 mg/kg)?
**A.** The value was 62%.

**Q.** What about the “animals with complete cessation of bleeding” value (blood loss [5]; r-Antidote 1, 2 or 4 mg bolus) of the same molecule?
**A.** Its value is 70-85%.

**Q.** What about the “reduction of PT prolongation” value (prothrombin time (PT); 35 minute time point, rivaroxaban rabbits (Table 7)) of the same molecule?
**A.** Its value is 81%.

**Q.** What about the “decrease (reversal) of PT” value (prothrombin time (PT); rivaroxaban rabbits, r-Antidote 75 mg/rabbit, rfVIIa 150 μg/kg) of the same molecule?
**A.** The value was 74%.

“And” between values parts separate entries of the source, which are not always exact repeats. Equal entries are not always repeated.
